In patent US9441024B2, “Glycosylated polypeptide and drug composition containing said polypeptide” (priority 2011, dated 2016):
Where two headings read alike, the source gives them in different places.

The chains behind the UniProt entries cited, without tags or fusion partners. Where a name states a change or a piece, a line headed by the entry shows the natural chain unless it says otherwise.
UniProt P30872, whole entry, species assumed: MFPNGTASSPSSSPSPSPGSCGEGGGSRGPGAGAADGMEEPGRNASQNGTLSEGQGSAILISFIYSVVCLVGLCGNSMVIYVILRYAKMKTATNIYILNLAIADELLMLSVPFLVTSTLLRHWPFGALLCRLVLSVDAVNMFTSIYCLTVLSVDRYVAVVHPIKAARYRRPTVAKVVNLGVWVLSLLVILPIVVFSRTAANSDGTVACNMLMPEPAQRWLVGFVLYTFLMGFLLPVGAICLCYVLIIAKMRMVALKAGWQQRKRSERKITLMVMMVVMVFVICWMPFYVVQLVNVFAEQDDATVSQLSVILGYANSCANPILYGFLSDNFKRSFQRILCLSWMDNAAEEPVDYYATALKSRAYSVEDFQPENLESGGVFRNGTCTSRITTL
UniProt P30874: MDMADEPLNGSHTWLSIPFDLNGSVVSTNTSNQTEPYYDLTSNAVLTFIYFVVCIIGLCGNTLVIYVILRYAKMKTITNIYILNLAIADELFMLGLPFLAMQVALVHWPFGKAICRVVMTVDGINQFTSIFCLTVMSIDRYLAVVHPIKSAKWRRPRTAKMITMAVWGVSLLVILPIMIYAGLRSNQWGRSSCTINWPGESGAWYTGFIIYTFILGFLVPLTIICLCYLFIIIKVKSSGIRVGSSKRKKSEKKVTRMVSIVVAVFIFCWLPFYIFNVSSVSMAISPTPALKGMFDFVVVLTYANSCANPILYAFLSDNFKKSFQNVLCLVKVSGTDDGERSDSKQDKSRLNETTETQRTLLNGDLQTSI
UniProt P31391: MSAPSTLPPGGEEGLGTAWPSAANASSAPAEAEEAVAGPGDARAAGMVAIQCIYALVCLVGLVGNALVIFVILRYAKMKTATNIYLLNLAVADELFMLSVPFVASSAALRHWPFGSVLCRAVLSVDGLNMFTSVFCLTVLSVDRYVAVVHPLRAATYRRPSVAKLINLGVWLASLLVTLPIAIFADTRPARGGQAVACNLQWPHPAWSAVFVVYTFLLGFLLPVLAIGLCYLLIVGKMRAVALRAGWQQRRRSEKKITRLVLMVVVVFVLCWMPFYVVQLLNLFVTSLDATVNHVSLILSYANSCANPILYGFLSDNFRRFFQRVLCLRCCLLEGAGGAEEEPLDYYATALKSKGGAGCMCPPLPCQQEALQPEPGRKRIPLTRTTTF
UniProt P32745: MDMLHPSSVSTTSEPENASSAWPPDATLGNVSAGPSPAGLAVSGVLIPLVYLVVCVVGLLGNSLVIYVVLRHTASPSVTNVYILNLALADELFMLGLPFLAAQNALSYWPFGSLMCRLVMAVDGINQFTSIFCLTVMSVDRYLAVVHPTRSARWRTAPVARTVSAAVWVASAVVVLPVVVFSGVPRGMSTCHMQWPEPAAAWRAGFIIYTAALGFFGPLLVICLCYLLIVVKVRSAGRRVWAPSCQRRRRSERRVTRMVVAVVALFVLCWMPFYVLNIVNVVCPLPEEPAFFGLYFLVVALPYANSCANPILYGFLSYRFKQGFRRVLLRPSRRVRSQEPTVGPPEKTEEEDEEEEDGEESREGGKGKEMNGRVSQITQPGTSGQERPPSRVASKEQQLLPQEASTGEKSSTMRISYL
UniProt P35346: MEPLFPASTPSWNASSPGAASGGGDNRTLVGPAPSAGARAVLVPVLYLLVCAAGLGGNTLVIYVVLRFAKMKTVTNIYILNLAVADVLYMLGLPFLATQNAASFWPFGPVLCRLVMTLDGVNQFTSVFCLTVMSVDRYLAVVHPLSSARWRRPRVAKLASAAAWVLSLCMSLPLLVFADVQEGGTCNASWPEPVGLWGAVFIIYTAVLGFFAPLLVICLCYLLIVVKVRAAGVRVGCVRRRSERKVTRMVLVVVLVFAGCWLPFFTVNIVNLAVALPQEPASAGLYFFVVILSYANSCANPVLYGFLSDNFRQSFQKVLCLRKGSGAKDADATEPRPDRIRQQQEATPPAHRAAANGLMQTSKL

Experiments:
SSTR1 [1] = target: T1, SSTR1 (Homo sapiens, UniProt P30872); assay: Competitive binding assay, SSTR1 membrane sample; details: for IC50: read-out: SSTR1 IC50
[2] = Pharmacokinetics test with rats (intravenous and subcutaneous administration); details: rat; for Extension of t1/2 compared to non-glycosylated SRIF14 / Increase of AUC compared to non-glycosylated SRIF14: administered intravenously (text on Tables 5B, 5D); for Intravenous administration AUC / Subcutaneous administration AUC: Tables 5B-5F, unit from footnote of Table 5; for Extension of t1/2 compared to non-glycosylated SRIF28 / Increase of AUC compared to non-glycosylated SRIF28: administered intravenously (text on Tables 5B-5F); for AUC for subcutaneous administration as fraction of that of S1C(disialo)-SRIF28: s.c., Examples 70-87
SSTR2 [3] = target: T2, SSTR2 (Homo sapiens, UniProt P30874)
SSTR2 [4] = target: T2, SSTR2; assay: Competitive binding assay, SSTR2 membrane sample; details: Table 3B, competitive binding assay (Example 69-2); for Ki: read-out: SSTR2 Ki; for IC50: read-out: SSTR2 IC50
SSTR4 = SSTR4 (Homo sapiens, UniProt P31391); assay: Competitive binding assay, SSTR4 membrane sample; details: for Ki: read-out: SSTR4 Ki
SSTR3 [5] = target: T3, SSTR3 (Homo sapiens, UniProt P32745)
SSTR3 [6] = target: T3, SSTR3; assay: Competitive binding assay, SSTR3 membrane sample; details: Table 3B, competitive binding assay (Example 69-2); for IC50: read-out: SSTR3 IC50
SSTR5 = SSTR5 (Homo sapiens, UniProt P35346); assay: Competitive binding assay, SSTR5 membrane sample; details: Table 3B, competitive binding assay (Example 69-2); for IC50: read-out: SSTR5 IC50
SSTR1 [7] = target: T1, SSTR1; assay: Agonist activity: cAMP production suppression, SSTR1 receptor expression cells; type: cell-based; details: read-out: IC50 of agonist activity, SSTR1; Table 3E (Example 69-4)
SSTR1 [8] = target: T1, SSTR1
[9] = subcutaneous vs intravenous, (AUC(sc)/Dose(sc))/(AUC(iv)/Dose(iv)), Table 5 (5A)
[10] = Table 3B, competitive binding assay (Example 69-2)
[11] = Table 3A (Example 69-1), labeled ligand [125I]Tyr11-SRIF14

2C(disialo)-R—K-SRIF14 [Example 50]
Ki (SSTR1 [1]; read-out: SSTR1 Ki, Table 3B, competitive binding assay (Example 69-2)): 40 nM | Extension of t1/2 compared to non-glycosylated SRIF14 [2]: 63 folds | Increase of AUC compared to non-glycosylated SRIF14 [2]: 42 folds

3C(disialo)-R—K-SRIF14 [Example 51]
Extension of t1/2 compared to non-glycosylated SRIF14 [2]: 71 folds | Increase of AUC compared to non-glycosylated SRIF14 [2]: 36 folds

30C(disialo)-SRIF28 [Example 14]
IC50 (SSTR2 [3]): 0.517 nM

A9C(disialo)-SRIF28 [Example 3]
BA (bioavailability) [2, 9]: 60%

A15C(disialo)-SRIF28 [Example 7]
Ki (SSTR2 [4]): 0.408 nM

Biotin-PEG linker-S1C(disialo)-SRIF28 [Example 47]
IC50 (SSTR2 [4]): 1.96 nM

Biotin-S1C(disialo)-SRIF28 [Example 46]
IC50 (SSTR1 [1]; [10]): 11 nM

C(disialo(aminoethylamide))/S1C(disialo)-SRIF28 [Example 67]
Intravenous administration AUC [2]: 3742 nM·min | Subcutaneous administration AUC [2]: 1289 nM·min

C(disialo)-C12 linker-SRIF14 [Example 19]
Ki (SSTR4; Table 3A (Example 69-1)): 2.62 nM | Intravenous administration AUC [2]: 1686 nM·min | Subcutaneous administration AUC [2]: 345 nM·min | Ki (SSTR3 [5]): 1.07 nM

C(disialo)-K-SRIF14 [Example 42]
IC50 (SSTR3 [6]): 3.65 nM

C(disialo)-SRIF14 [Example 17]
IC50 (SSTR2 [3]): 0.336 nM | Ki (SSTR3 [5]): 1.56 nM

E12C(disialo)-SRIF28 [Example 4]
Ki (SSTR2 [3]): 0.0596 nM

N5C(disialo)-SRIF28 [Example 2]
BA (bioavailability) [2, 9]: 54% | Ki (SSTR3 [5]): 0.099 nM

N5N(disialo)-SRIF28 [Example 30]
IC50 (SSTR1 [1]; [11]): 3.02 nM

N19C(disialo)-SRIF28 [Example 10]
Ki (SSTR2 [3]): 0.645 nM | IC50 (SSTR1 [1]; [11]): 10.1 nM | Ki (SSTR3 [5]): 0.503 nM

R13C(disialo)-SRIF28 [Example 5]
IC50 (SSTR4; read-out: SSTR4 IC50, Table 3A (Example 69-1)): 0.43 nM

S1-2C(asialo)-SRIF28 [Example 28]
Extension of t1/2 compared to non-glycosylated SRIF28 [2]: 6 folds | Increase of AUC compared to non-glycosylated SRIF28 [2]: 6 folds | AUC for subcutaneous administration as fraction of that of S1C(disialo)-SRIF28 [2]: ⅓-½ and ½

S1-2C(disialo(amide))-SRIF28 [Example 63]
Ki (SSTR4; [10]): 2.67 nM

S1-3C(asialo)-SRIF28 [Example 29]
Extension of t1/2 compared to non-glycosylated SRIF28 [2]: 5 folds | Increase of AUC compared to non-glycosylated SRIF28 [2]: 6 folds

S1-4C(disialo)-SRIF28 [Example 68]
Extension of t1/2 compared to non-glycosylated SRIF28 [2]: 48 folds | Increase of AUC compared to non-glycosylated SRIF28 [2]: 15 folds | Ki (SSTR5; read-out: SSTR5 Ki): 5.32 nM

S1C(Asn(disialo))-SRIF28 [Example 65]
IC50 (SSTR1 [7]): 2.6 nM

S1C(GlcNAc)-SRIF28 [Example 55]
Ki (SSTR3 [6]; read-out: SSTR3 Ki): 0.565 nM

S1C(asialo)-SRIF28 [Example 27]
Extension of t1/2 compared to non-glycosylated SRIF28 [2]: 10 folds | Increase of AUC compared to non-glycosylated SRIF28 [2]: 10 folds | AUC for subcutaneous administration as fraction of that of S1C(disialo)-SRIF28 [2]: ⅓-½

S1C(disialo(aminoethylamide))-SRIF28 [Example 59]
AUC for subcutaneous administration as fraction of that of S1C(disialo)-SRIF28 [2]: 1/7 | IC50 (SSTR5): 2.68 nM

SRIF28 [reference compound]
Ki (SSTR2 [3]): 0.144 nM | Ki (SSTR1 [8]): 0.292 nM | IC50 (SSTR2 [4]): 0.068 nM | Ki (SSTR2 [4]): 0.0565 nM | BA (bioavailability) ([2]; Table 5E (Example 86), s.c. versus i.v.): 5% | BA (bioavailability) [2, 9]: 5% | Bioavailability (BA) ([2]; text on Table 5A (Examples 71-75), s.c. versus i.v.): 5% | IC50 (SSTR3 [5]): 0.0368 nM | IC50 (SSTR3 [6]): 0.106 nM

T26C(disialo)-SRIF28 [Example 12]
IC50 (SSTR5): 400 nM
